GIV Gai3 FP – inhibitors of GIV GBA-motif binding to rat Galpha-i3; P08753; Galpha-i3/FITC-GIV peptide fluorescence polarization, 90 min; hits give low values; scaled: aluminum fluoride 0%, vehicle 100%; percent of control (FP), % (test concentration not listed); AID 1224905; hit rate 0.42% among 210,000;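 active = replicate mean at 85% of control or lower, very high polarization wells dropped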;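 note: wells of about 15 µL received 100 nL stock; the first replicate is given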
HCMV UL50-53 inh – inhibitors of HCMV UL50-UL53 nuclear egress complex interaction | 190,000 compounds, 0.15% hits | HTRF UL50-UL53 interaction, normalized percent inhibition | inhibition, % (concentration not given with the values); in the data active = inhibition above about 27%, passing the limit was not always enough
GIV-Gai FP conf – confirmation of inhibitors of GIV binding to rat Galpha-i3; shares compounds with GIV Gai3 FP; FITC-GIV peptide binding to Galphai3, fluorescence polarization; stronger effect = lower value; fluorescence polarization, mP at 100 µM; 580 compounds, 38% hits; AID 1259350;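 active = inhibition score of 15 or more, meaning 100 minus mean polarization as percent of control over three replicates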
GIV Gai AS conf – GIV-Galpha-i3 inhibition, AlphaScreen confirmation. shares compounds with GIV Gai3 FP. AlphaScreen Galphai3-GIV binding, purified proteins, 90 min; stronger effect = lower value. AlphaScreen counts at 100 µM. 580 compounds, 39% hits. AID 1259351;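 active = inhibition score at or above a set limit, where the score is 100 minus the three-replicate mean percent of control signal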
Hits are given with their value; . = inactive; / = no result. The entries come from a sample that favours hits as a whole.

SMILES | GIV Gai3 FP | HCMV UL50-53 inh | GIV-Gai FP conf | GIV Gai AS conf
CC(C)Nc1ccc(-c2nc(-c3ccco3)no2)cc1[N+](=O)[O-] | . | . | . | .
Cc1cc(NCc2ccccc2)n2nc(C(F)(F)F)c(-c3ccc(F)cc3)c2n1 | . | . | / | /
COc1cc(-c2nc3ccccn3c2N)ccc1O | 24 | 94 | . | 18629
COc1cc(/C=N/c2c(-c3ccc(O)c(OC)c3)nc3ccccn23)ccc1O | / | . | / | /
CCN(CC)c1ccc(N)c(C)c1 | 41 | . | . | 1482
CCN(CC)c1ccc(NC(C)=O)c(C)c1 | . | . | / | /
COc1cccc(C(=O)NCCc2cc3ccc(OC)cc3[nH]c2=O)c1 | . | . | / | /
CCOC(=O)/C(C#N)=C\c1cc2ccc(OC)cc2[nH]c1=O | 56 | . | . | .
CSC1=NC2(CCN(C(=O)NCc3ccccc3)CC2)N=C1c1ccccc1 | . | . | / | /
COc1cc(C2C(C#N)=C(N)Oc3n[nH]c(C45CC6CC(CC(C6)C4)C5)c32)ccc1O (stereo not given) | . | / | / | /
CC(=O)c1c2c3c(c(Br)ccc3n(C)c1=O)C(=O)c1ccccc1-2 | . | / | / | /
Cn1c(=O)c(C(=O)CS(=O)(=O)O)c2c3c(c(Br)ccc31)C(=O)c1ccccc1-2 | 84 | / | . | 5202
CCOc1ccc(-c2noc(-c3cc(C4CC4)[nH]n3)n2)cc1 | . | . | / | /
CCN(CC)c1ccc2ccc(=O)oc2c1 | . | . | / | /
CCN(CC)c1ccc2cc(S(=O)(=O)c3ccc(F)c(Cl)c3)c(=O)oc2c1 | 56 | . | . | .
COc1ccc(OC)c(/C=C2/SC(=S)N(CNc3ccc(Br)cc3)C2=O)c1 | . | / | / | /
O=C(O)c1ccccc1C(=O)c1ccccc1 | / | . | / | /
O=C(c1ccccc1)c1cccc2c1NCC2 | 81 | . | . | .
COc1cc2ncn(-c3cc(OCc4ccccc4C(F)(F)F)c(C(N)=O)s3)c2cc1OC | / | . | / | /
O=C1NC(=O)c2cccc3cccc1c23 | . | . | / | /
O=C1C=C(O)c2cccc3cccc1c23 | 83 | . | . | 15097
Cc1c(C(=O)NCCC2=CCCCC2)sc2nc3n(c(=O)c12)CCCCC3 | . | . | / | /
COc1ccc(C(C2C(=O)N(c3ccccc3)N=C2C)C2C(=O)N(c3ccccc3)N=C2C)cc1OC (stereo not given) | 77 | / | . | 15958
COc1ccccc1C(C1C(=O)N(c2ccccc2)N=C1C)C1C(=O)N(c2ccccc2)N=C1C (stereo not given) | . | / | / | /
COC(=O)c1cc2nc(-c3ccc(F)cc3)cc(C(F)(F)F)n2n1 | / | . | / | /
SMILES | GIV Gai3 FP | HCMV UL50-53 inh | GIV-Gai FP conf | GIV Gai AS conf
CCSc1nccc2c1ccn2CC(=O)NCc1ccc(CC)cc1 | . | / | / | /
CC1(C)C=C(O)C(C2(O)C(=O)c3ccccc3C2=O)C(=O)C1 (stereo not given) | / | . | / | /
CC1(C)CC(=O)C(C2(O)C(=O)c3ccccc3C2=O)C(=O)C1 | 66 | 82 | 58 | .
COc1ccccc1C(=O)Nc1ccccc1SCc1cc(=O)c2ccccc2[nH]1 | 53 | / | 53 | .
COc1ccc(C(=O)Nc2ccccc2SCc2cc(=O)c3cccc(C)c3[nH]2)cc1 | . | / | / | /
Cc1cc2c(cc1C)N=C(C(F)(F)F)CC(c1cccs1)=N2 | . | / | / | /
O=C(CSc1nnc2c3sc(N4CCCC4)nc3ncn12)Nc1ccc(F)c(F)c1 | . | / | / | /
O=C(CSc1nnc2c3sc(N4CCCC4)nc3ncn12)Nc1ccc2c(c1)OCO2 | 30 | / | . | .
COc1ccc([N+](=O)[O-])cc1-c1ccc(/C=c2/sc3nc4ccccc4n3c2=O)o1 | . | . | / | /
CCc1ccc(N=Cc2c(O)ccc3ccccc23)cc1 | / | . | / | /
Cc1cc(N=Cc2c(O)ccc3ccccc23)no1 | -9.8 | 103 | 13 | 20466
Cn1c(/N=C/c2c(O)ccc3ccccc23)nc2ccc(Br)cc21 | 23 | . | 25 | 14331
Cc1ccc(O)c(C=Nc2cc(C)on2)c1 | . | . | / | /
CCOC(=O)c1ccc(N=c2ssc3c2-c2ccccc2NC3(C)C)cc1 | . | / | / | /
NNC(=O)CNC(=O)c1ccc(S(=O)(=O)N2CCOCC2)cc1 | . | . | / | /
CCC(Sc1ccc(Cl)cc1)C(=O)Nc1nnc(-c2ccccc2)s1 (stereo not given) | / | . | / | /
N#CC(C(=O)NCc1ccccc1)c1nc2ccccc2nc1N1CCCC1 (stereo not given) | / | . | / | /
N#CC(C(=O)NCCc1ccccc1)c1nc2ccccc2nc1N1CCOCC1 (stereo not given) | . | . | . | .
Cc1nc2cc(C(=O)NCC3CCCO3)ccc2n1-c1ccc(Br)cc1 (stereo not given) | . | / | / | /
COc1cc(/C=C2/SC(=S)N(c3ccc4ccccc4c3)C2=O)ccc1O | / | . | / | /
Fc1ccc(NC(=S)N2CCCCC2)cc1 | . | . | / | /
CCN(CC)C(=S)Nc1ccc2nsnc2c1 | 66 | / | 27 | 10807
COc1cccc(NC(=O)c2ccc3nsnc3c2)c1 | . | . | / | /
S=C(Nc1ccc2nsnc2c1)N1CCCC1 | 81 | / | 23 | 11675
O=C(NCc1ccc(Cl)cc1)c1cc2c(s1)CCC2 | / | . | / | /
SMILES | GIV Gai3 FP | HCMV UL50-53 inh | GIV-Gai FP conf | GIV Gai AS conf
O=C(CCc1nnc2c(=O)n(-c3cccc(F)c3)ccn12)NCCC1=CCCCC1 | . | . | / | /
CCOC(=O)C1=C(C)N=c2s/c(=C\c3cc([N+](=O)[O-])ccc3N3CCOCC3)c(=O)n2C1c1ccc(OC)cc1 (stereo not given) | . | . | / | /
CCOC(=O)C1=C(C)N=c2s/c(=C\c3cc([N+](=O)[O-])ccc3N3CCOCC3)c(=O)n2C1c1ccc(F)cc1 (stereo not given) | 74 | . | . | .
Cc1ccccc1-c1nn2c(=O)cc(N3CCN(C(=O)Nc4ccc(Cl)cc4)CC3)nc2s1 | . | . | / | /
Cc1ccc(NC(=O)N2CCN(c3cc(=O)n4nc(-c5ccccc5C)sc4n3)CC2)cc1F | 84 | . | . | .
CC1=NN(c2cccc(Br)c2)C(=O)/C1=C\c1ccc(-c2cccc([N+](=O)[O-])c2)o1 | . | . | / | /
O=C1OC(c2ccccc2)OC(=O)C1=Cc1ccc(-c2cccc(Br)c2)o1 (stereo not given) | 64 | / | . | 17821
O=C(O)c1cc(=O)n(CN2CCC(Cc3ccccc3)CC2)c(=O)[nH]1 | / | . | / | /
COc1ccc(/C=C/C(=O)Nc2cc(C)nc3ccccc23)cc1OC | / | . | / | /
CCOc1cccc(=O)c2c(C)oc(C)c12 | . | . | / | /
CCOc1cccc(=[O+]CC)c2c(C)oc(C)c12 | 68 | / | 44 | 2733
CCN(c1ccccc1)S(=O)(=O)c1ccc2[nH]cc(C(=O)NCCc3ccc(OC)c(OC)c3)c(=O)c2c1 | . | / | / | /
C=CCn1c(C)cc(C(=O)CSc2nc(-c3ccccc3)cn2N)c1C | / | . | / | /
O=C(O)C1=CC(=C(c2ccc(O)c(C(=O)O)c2)c2ccc(O)c(C(=O)O)c2)C=CC1=O | -19 | 123 | 17 | 2586
Nc1ccc(O)c(C(=O)O)c1 | . | . | / | /
O=[N+]([O-])C(=C(Sc1ccccc1)Sc1ccccc1)/C(Cl)=C(/Cl)Br | . | / | / | /
CC1CCN(C(=O)Cn2c(=O)c3ccccc3n3c(=S)sc(-c4ccccc4F)c23)CC1 | 81 | . | . | .
CCOC(=O)C1CCCN(C(=O)Cn2c(=O)c3ccccc3n3c(=S)sc(-c4ccccc4F)c23)C1 (stereo not given) | . | . | / | /

Source: PubChem BioAssay (ICCB-Longwood Screening Facility, Harvard Medical School)
